The assay deals with GST-LC3B (human) (UniProt Q9GZQ8). The assay is described as follows: pull-down.

For one substance, fold increase of binding against wild-type TNIP1 results are on record in article PMC9797988.

“myc-TNIP1-S122E/S123E, 35S-labelled (from UniProt Q15025-1 1-636) (natural protein)”: the fold increase of binding against wild-type TNIP1 worked out at 3.4 fold.
